Reference: patent US20260258049A1, “Molecules and Methods Related to Treatment of Uncontrolled Cellular Proliferation” (ST. JUDE CHILDREN'S RESEARCH HOSPITAL, priority 2019, published 2026)

Amino acid sequences for entries named in this document (tags omitted).
UniProt P15170, whole entry: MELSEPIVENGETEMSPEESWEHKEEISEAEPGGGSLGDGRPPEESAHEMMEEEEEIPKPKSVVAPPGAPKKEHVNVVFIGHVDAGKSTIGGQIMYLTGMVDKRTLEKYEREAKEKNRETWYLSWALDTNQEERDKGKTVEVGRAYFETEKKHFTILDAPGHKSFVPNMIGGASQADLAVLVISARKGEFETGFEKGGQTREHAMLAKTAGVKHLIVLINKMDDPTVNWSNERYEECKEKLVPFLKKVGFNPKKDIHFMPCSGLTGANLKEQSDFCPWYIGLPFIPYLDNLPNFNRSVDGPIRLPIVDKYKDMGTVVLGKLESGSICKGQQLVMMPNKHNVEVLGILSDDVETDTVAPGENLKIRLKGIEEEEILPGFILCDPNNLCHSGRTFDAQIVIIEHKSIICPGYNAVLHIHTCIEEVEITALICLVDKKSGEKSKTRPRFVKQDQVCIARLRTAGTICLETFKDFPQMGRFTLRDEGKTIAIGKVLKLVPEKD

How the values were obtained:
MHH-CALL-4-CRBN-KD = assay: Cytotoxicity assay in CRBN knockdown cells; assay type: cell-based, human
[1] = In vivo pharmacokinetic (PK) study; settings: 30 and 100 mg/kg intraperitoneal
Janus kinases and GSPT1 = assay: In vivo pharmacodynamics, immunoblotting; settings: 10, 30, and 100 mg/kg i.p., 2 daily doses
MHH-CALL-4 = assay: Cytotoxicity assay (resazurin, 72 hours); assay type: cell-based, human
[2] = system: JAK-STAT5 signaling pathway; assay: Phosphoflow analysis in MHH-CALL-4 cells with or without TSLP; settings: 1 μM, one hour before TSLP 25 ng/mL for 30 minutes
GSPT1 = GSPT1 (Homo sapiens, UniProt P15170); assay: Immunoblot protein degradation in MHH-CALL-4 cells; assay type: cell-based
CRLF2r B-ALL xenograft = assay: Xenograft in vivo preclinical efficacy study; design: species or system mouse
[3] = system: JAK2 and STAT5 phosphorylation; assay: In vivo pharmacodynamics, phosphoflow cytometry; settings: 10, 30, and 100 mg/kg i.p., 2 daily doses

With `CCCn1cc(-c2nc(Nc3ccc(C(=O)NCCCCNc4cccc5c4C(=O)N(C4CCC(=O)NC4=O)C5=O)cc3)nc3[nH]ccc23)cn1` (centres unmarked) [SJ000988497] the “activity on CRISPR/Cas9 knockdown of CRBN” value (MHH-CALL-4-CRBN-KD) was “abolished”, the “plasma concentration after 24 hours” value [1] was “well above the compounds cellular EC50 value” and the “JAK/GSPT1 degradation in vivo” value (Janus kinases and GSPT1) was “near maximal at the 30 mg/kg dose”. The “activity on co-treatment with 30 μM of lenalidomide” value (MHH-CALL-4) was “abolished”, the “fold activity compared to each of the parent compounds, ruxolitinib and pomalidomide” value (MHH-CALL-4; CRLF2r MHH-CALL-4 cells) was “greater than 70,000 fold” and the EC50 (MHH-CALL-4; read-out: HHCALL4 (nM), MHHCALL4 EC50, Table 6, no star) was 812 nM. For the same compound, the “JAK inhibition (phosphoflow)” value [2] was “comparable JAK inhibition”, the “extent of degradation of GSPT1” value (GSPT1) was “degradation of GSPT1 was observed” and the “tolerability (weight, blood counts)” value (CRLF2r B-ALL xenograft; 28-day period) was “well tolerated with no weight loss or perturbation in blood counts”. The “spleen size and tumor burden in PDX model” value (CRLF2r B-ALL xenograft; compound 7 30 mg/kg i.p. daily) was “reduced spleen size and tumor burden” and the “JAK2 and STAT5 phosphorylation in vivo” value [3] was “dose dependent inhibition”.
